{"source": "paper PMC10208276", "about": "“A Very Long-acting Exatecan and Its Synergism with DNA Damage Response Inhibitors” (Cancer Research Communications, 2023)", "key": {"[1]": {"details": "single intraperitoneal doses of 10 and 15 μmol/kg"}, "[2]": {"details": "mouse"}}, "note": "Read-outs that look alike come from different tables or passages of the source."}
{"substance": "PEG40kDa-[exatecan]4 (Mod = 4-Cl-C6H4-SO2-) [3A]", "values": [{"measurement": "weight loss of hosts", "setting": "[1]", "result": "without weight loss"}, {"measurement": "concentration of released free Exa relative to prodrug 3A, fold lower", "setting": "[2]", "result": "≥ 1,000 fold"}, {"measurement": "Released Exa C max/dose", "setting": "[2]; 7.5 μmol/kg conjugate, Intraperitoneal, analyte released Exa", "result": "0.004 ± 0.001", "unit": "kg/L"}, {"measurement": "AUC∞", "setting": "[2]; 7.5 μmol/kg, Intraperitoneal", "result": "1,650 ± 116 μmol/L•hours"}, {"measurement": "AUC∞/dose", "setting": "[2]; 7.5 μmol/kg, Intraperitoneal", "result": "220 ± 16", "unit": "kg·h/L"}, {"measurement": "C0", "setting": "[2]; 7.5 μmol/kg, Intraperitoneal", "result": "193 ± 21", "unit": "µM"}, {"measurement": "C0, μmol/L/dose", "setting": "[2]; 7.5 μmol/kg, Intraperitoneal", "result": "25 ± 3", "unit": "kg/L"}, {"measurement": "C max/dose", "setting": "[2]; 7.5 μmol/kg, Intraperitoneal", "result": "14.7 ± 1.1", "unit": "kg/L"}, {"measurement": "Cmax", "setting": "[2]; 7.5 μmol/kg, Intraperitoneal", "result": "110 ± 4", "unit": "µM"}, {"measurement": "t1/2,α", "setting": "[2]; 7.5 μmol/kg, Intraperitoneal", "result": "2.6 ± 0.3", "unit": "h"}, {"measurement": "t1/2,β (apparent elimination / circulating half-life)", "setting": "[2]; 7.5 μmol/kg, Intraperitoneal", "result": "approximately 12 hours"}, {"measurement": "tmax", "setting": "[2]; 7.5 μmol/kg, Intraperitoneal", "result": 7, "unit": "h"}, {"measurement": "t1/2 drug release (release of Exa in vivo)", "setting": "[2]; 7.5 μmol/kg, Intraperitoneal, from k1 = k3 − kβ, listed as PEG-Exa (3A)", "result": "40.8 ± 9.1", "unit": "h"}, {"measurement": "t1/2,β (apparent elimination / circulating half-life)", "setting": "[2]; 7.5 μmol/kg, Intraperitoneal, listed as PEG-Exa", "result": 12, "unit": "h"}, {"measurement": "t1/2,β (apparent elimination / circulating half-life)", "setting": "[2]; 7.5 μmol/kg, Intraperitoneal, listed as PEG-Exa (3A)", "result": "12.2 ± 0.5", "unit": "h"}, {"measurement": "Cmax", "setting": "[2]; read-out: Released Exa C max, 7.5 μmol/kg conjugate, Intraperitoneal, analyte released Exa", "result": "0.028 ± 0.009", "unit": "µM"}, {"measurement": "kOH of Exa release", "setting": "37°C, between pH 7.4 and 9.0, hydroxide-catalyzed", "result": 0.012, "unit": "h⁻¹"}, {"measurement": "Calc. t1/2 at pH 7.5, average", "setting": "Ave. ± SE of the three pH values", "result": "Ave. 59 ± 7 (SE) h"}, {"measurement": "Calc. t1/2 at pH 7.5", "setting": "calculated from value observed at pH 7.4", "result": 57, "unit": "h"}, {"measurement": "Calc. t1/2 at pH 7.5", "setting": "calculated from value observed at pH 8.4", "result": 53, "unit": "h"}, {"measurement": "Calc. t1/2 at pH 7.5", "setting": "calculated from value observed at pH 9.0", "result": 67, "unit": "h"}, {"measurement": "conjugate remaining", "setting": "pH 5.0, 10 days", "result": 99, "unit": "%"}, {"measurement": "conjugate remaining", "setting": "pH 5.1, 37° C, 11 d", "result": ">99", "unit": "% remaining at 11 d"}, {"measurement": "Obsd t1/2", "setting": "pH 7.4, 37° C", "result": 51.6, "unit": "h"}, {"measurement": "Obsd t1/2", "setting": "pH 8.4, 37° C", "result": 4.87, "unit": "h"}, {"measurement": "Obsd t1/2", "setting": "pH 9.0, 37° C", "result": 1.72, "unit": "h"}]}
